Key:
[1] = biological target: T1, Acetylcholinesterase (Rattus norvegicus) (UniProt P37136); assay: Reactivation of 10 uM paraoxon inhibited AChE in rat brain homogenate; set-up: scale not given: the % may be the effect or the level left
T1 sequence (whole entry): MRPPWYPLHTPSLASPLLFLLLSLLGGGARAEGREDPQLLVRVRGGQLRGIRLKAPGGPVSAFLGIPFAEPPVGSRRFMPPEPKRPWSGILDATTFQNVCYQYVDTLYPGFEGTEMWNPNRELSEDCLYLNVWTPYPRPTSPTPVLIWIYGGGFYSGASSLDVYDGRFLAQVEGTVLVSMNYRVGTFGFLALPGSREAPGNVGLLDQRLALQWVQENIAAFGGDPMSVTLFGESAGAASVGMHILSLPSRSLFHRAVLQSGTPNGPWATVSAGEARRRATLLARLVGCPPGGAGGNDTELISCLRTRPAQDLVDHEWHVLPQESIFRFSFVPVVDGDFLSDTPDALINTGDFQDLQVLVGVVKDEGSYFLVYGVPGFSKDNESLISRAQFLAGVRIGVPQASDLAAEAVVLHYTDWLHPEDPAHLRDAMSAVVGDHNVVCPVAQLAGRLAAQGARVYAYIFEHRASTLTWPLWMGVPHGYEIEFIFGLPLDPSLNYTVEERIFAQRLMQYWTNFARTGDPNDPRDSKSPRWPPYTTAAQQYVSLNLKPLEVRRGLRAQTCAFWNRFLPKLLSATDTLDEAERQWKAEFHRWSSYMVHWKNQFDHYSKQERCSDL

[2] = biological target: T1, Acetylcholinesterase (Rattus norvegicus); assay: Reactivation of 1000 uM paraoxon inhibited AChE in rat brain homogenate; set-up: scale not given: the % may be the effect or the level left

Row | SMILES | Activity [1] [%] | Activity [2] [%]
1 | C=CC[n+]1cccc(/C=N/O)c1 | 0 | 0
2 | O/N=C/c1cccc[n+]1CCc1ccccc1 | 9 | 16
3 | NC(=O)c1cc[n+](COC[n+]2ccccc2/C=N/O)cc1 | 0 | –
4 | O/N=C/c1ccc[n+](Cc2ccccc2)c1 | 0 | 0
5 | O/N=C/c1cc[n+](C[n+]2ccc(/C=N/O)cc2)cc1 | 0 | 71
6 | O/N=C/c1cc[n+](CCCc2ccccc2)cc1 | 4 | 7
7 | O/N=C/c1ccc[n+](CCCc2ccccc2)c1 | 4 | 0
8 | CCC[n+]1cccc(/C=N/O)c1 | 0 | 0
9 | CCC[n+]1ccc(/C=N/O)cc1 | 0 | 22
10 | C=CC[n+]1ccc(/C=N/O)cc1 | 0 | 12
11 | O/N=C/c1cccc[n+]1CCCc1ccccc1 | 5 | 20
12 | O/N=C/c1cccc[n+]1Cc1ccccc1 | 0 | 0
13 | O/N=C/c1cc[n+](Cc2ccccc2)cc1 | 0 | 0
14 | C=CC[n+]1ccccc1/C=N/O | 0 | 38
15 | O/N=C/c1cc[n+](CCc2ccccc2)cc1 | 0 | 2
16 | O/N=C/c1ccc[n+](CCc2ccccc2)c1 | 3 | 7
17 | CCC[n+]1ccccc1/C=N/O | 0 | 52

Reference: ChEMBL document CHEMBL1156721, “Monoquaternary pyridinium salts with modified side chain-synthesis and evaluation on model of tabun- and paraoxon-inhibited acetylcholinesterase” (2008)
